Assay: solubility in organic solvents and water
Format: physicochemical
Settings: various organic solvents and water; compared with the 6 crystalline forms of WO2006/037043

solubility: better solubility
Structure (SMILES): CC(C)COc1ccc(CNC(=O)N(Cc2ccc(F)cc2)C2CCN(C)CC2)cc1.CC(C)COc1ccc(CNC(=O)N(Cc2ccc(F)cc2)C2CCN(C)CC2)cc1.O=C(O)C(O)C(O)C(=O)O [N-(4-fluorobenzyl)-N-(1-methylpiperidin-4-yl)-N′-(4-(2-methylpropyloxy)-phenylmethyl)carbamide hemitartrate]

From patent publication US20210171464A1 (OLON S.P.A., priority 2017, published 2021)
